By UniProt entry, the sequences of proteins in these tests, tags left out.
UniProt Q13547, whole entry: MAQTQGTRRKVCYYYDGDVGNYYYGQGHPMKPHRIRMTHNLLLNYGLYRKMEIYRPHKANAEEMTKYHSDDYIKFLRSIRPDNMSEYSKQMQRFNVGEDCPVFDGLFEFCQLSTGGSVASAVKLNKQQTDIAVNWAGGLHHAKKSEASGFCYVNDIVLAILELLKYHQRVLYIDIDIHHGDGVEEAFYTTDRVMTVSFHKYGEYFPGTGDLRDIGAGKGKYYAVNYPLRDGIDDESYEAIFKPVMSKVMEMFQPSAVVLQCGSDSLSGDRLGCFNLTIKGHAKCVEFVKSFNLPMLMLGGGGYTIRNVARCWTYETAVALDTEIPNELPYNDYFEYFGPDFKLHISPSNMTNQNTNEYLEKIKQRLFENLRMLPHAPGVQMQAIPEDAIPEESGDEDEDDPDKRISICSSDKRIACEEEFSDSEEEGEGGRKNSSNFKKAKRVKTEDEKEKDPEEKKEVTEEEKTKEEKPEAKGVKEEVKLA

In publication PMC4339887, “Selective Sirt2 inhibition by ligand-induced rearrangement of the active site” (Nature Communications, 2015):

Legend:
[1] = molecular target: T1, KDAC6 (Homo sapiens, UniProt Q9UBN7); experiment: in vitro KDAC1/6 assay, substrate ZMAL; type: biochemical
T1 construct: purchased Enzo Life Sciences
T1 sequence (Q9UBN7 1-1215): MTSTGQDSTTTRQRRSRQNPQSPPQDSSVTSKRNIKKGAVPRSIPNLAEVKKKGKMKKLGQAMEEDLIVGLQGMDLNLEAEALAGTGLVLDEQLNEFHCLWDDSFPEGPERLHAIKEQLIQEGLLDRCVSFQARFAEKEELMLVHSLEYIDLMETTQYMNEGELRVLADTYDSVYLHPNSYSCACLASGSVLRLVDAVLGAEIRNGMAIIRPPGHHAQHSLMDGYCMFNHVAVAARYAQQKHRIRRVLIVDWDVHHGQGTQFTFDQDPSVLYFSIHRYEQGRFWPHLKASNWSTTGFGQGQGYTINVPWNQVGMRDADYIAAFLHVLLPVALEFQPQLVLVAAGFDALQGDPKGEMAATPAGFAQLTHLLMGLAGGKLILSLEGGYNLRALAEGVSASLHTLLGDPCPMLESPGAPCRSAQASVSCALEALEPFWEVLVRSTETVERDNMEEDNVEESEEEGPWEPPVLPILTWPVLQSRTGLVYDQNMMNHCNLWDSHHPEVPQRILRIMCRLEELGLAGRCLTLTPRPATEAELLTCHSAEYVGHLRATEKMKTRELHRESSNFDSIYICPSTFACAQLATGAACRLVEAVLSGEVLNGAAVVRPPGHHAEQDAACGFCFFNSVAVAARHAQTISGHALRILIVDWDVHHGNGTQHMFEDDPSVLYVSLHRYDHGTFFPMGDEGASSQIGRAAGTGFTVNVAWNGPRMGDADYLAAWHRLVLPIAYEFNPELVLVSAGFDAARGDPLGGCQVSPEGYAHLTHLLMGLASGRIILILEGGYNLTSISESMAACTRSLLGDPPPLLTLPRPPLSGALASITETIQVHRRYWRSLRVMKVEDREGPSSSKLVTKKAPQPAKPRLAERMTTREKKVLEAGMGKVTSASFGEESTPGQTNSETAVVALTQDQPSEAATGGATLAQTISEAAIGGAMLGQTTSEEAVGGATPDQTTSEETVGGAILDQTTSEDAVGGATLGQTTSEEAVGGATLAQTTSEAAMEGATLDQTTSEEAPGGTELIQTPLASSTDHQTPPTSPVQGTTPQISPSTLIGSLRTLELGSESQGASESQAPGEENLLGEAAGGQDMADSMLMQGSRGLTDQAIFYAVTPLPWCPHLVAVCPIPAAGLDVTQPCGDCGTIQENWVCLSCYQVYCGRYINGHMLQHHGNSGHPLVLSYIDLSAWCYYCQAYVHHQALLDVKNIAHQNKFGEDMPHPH
Protocol: (§1) 5 times), Fmoc deprotection and amino acid coupling were repeated until the last amino acid was coupled and the Fmoc group was removed. The resin was washed with dichloromethane (DCM, 3 min, 5 times), methanol (5 min, 3 times) and DCM (3 min, 5 times). […]
(§2) acid (TFA) at RT (1 h, 2 times). Cleaved peptide was precipitated with cold diethylether, filtrated and dried. The peptide was purified by semi-preparative HPLC (Merck-Hitachi High Speed LC system) using a Merck Hibar LiChrosorb RP-8 column (250–25 mm, 7 μm). For separation a linear gradient from 20–50% (vol/vol) acetonitrile (ACN) with 0.1% (vol/vol) TFA in 60 min was applied (flow-rate: 8 ml min-1). […]
(§3) high-throughput fluorescence-based assay using the substrate ZMAL (Z-Lys(Acetyl)- […]
(§4) A solution that contained DMSO was used a negative
(§5) The reaction was started through the addition of KDAC1 (Enzo Life Sciences, 10 μL) or […]
(§6) initial state conditions the substrate conversion was adjusted to 10–30% prior to inhibition tests. The reaction was stopped by the addition of a solution containing trypsin and TSA […]
(§7) Then fluorescence intensity of the released fluorophore of the deacetylated lysine derivative was measured in a microplate […]
(§8) reader (BMG Polarstar, Oex 390 nm, Oem 460 nm). The amount of inhibition was determined with respect to the mixture with only DMSO.
(§9) Immunocytochemistry equipment and settings. […]

[2] = molecular target: T2, KDAC1 (Homo sapiens, UniProt Q13547); experiment: in vitro KDAC1/6 assay, substrate ZMAL; type: biochemical
T2 construct: purchased Enzo Life Sciences
Protocol: as §1, §2, §3, §4, §5, §6, §7, §8, §9

CC(/C=C/C(=O)NO)=C\[C@@H](C)C(=O)c1ccc(N(C)C)cc1 [Trichostatin A, reference compound]
activity of KDAC6 [1]: significantly inhibits | activity of KDAC1 [2]: significantly inhibits
